# Source: patent US4863898A, “Amino acid chelated compositions for delivery to specific biological tissue sites” (priority 1986, dated 1989)
# Tests used:
# [1] = radioactive manganese in tissues after injection into the jugular vein (Example III); type: in vivo; details: female rats; for radioactivity in Hypothalamus / radioactivity in Pituitary / radioactivity in Uterine tissue: 5.2 mcg manganese
# Excerpt: The manganese amino acid chelate was made utilizing a tripeptide of proline, histidine and glutamic acid as ligands and the mole ratio, of tripeptide ligand to manganese was 2:1. […] One hour after injection, three animals from each group were sacrificed. The remaining three from each group were sacrificed two hours after injection. The hypothalamus, pituitary and uterus of each animal was exposed and excised.
# [2] = stability constant of amino acid chelate; type: physicochemical
# Excerpt: The determination of stability constants of amino acid chelates is well documented in U.S. Pat. No. 4,167,564 and the means by which amino acid chelates may be formulated to provide optimal stability constants within the required ranges are disclosed in U.S. Pat. Nos. 4,176,564 and 4,172,072.
# [3] = female rats, after two hours
# Method: Six female rats, weighing 250 gms.±10 gms., were divided into two groups. All rats were anethetized with 0.15 mls sodium phenobarbital USP. […] To the other three, the same amount of calcium was administered in the form a calcium chloride.
# After two hours, all of he rats were sacrificed and the hypothalamus was removed and read for radioactivity.
# [4] = radioactive zinc in male sex tissues after intravenous dosage (Example II); details: rats, intravenous 0.06 mg zinc, 24 hours post treatment, group average
# Method: Three groups of rats, six in each group, weighing 250 gms±10 gms. were given an intravenous dosage, of 0.06 mg zinc containing 10 microcuries of radioactive zinc.
# Each rat was sacrificed 24 hours post treatment and the testes, epididymis, and seminal visicle of each were exposed, excised and a determination was made of the amount of radioactive zinc in each.
substance,measurement,setting,value
manganese chloride [MgCl Salt],change (drop) in manganese concentration in hypothalamus from one hour to two hours,[1],no noticable change
same,change in manganese concentration in pituitary from one hour to two hours,[1],no noticable change
same,radioactivity in Hypothalamus,[1]; 1 hr,25 cc/min/mg
same,radioactivity in Pituitary,[1]; 1 hr,100 cc/min/mg
same,radioactivity in Uterine tissue,[1]; 1 hr,50 cc/min/mg
same,radioactivity in Hypothalamus,[1]; 2 hr,25 cc/min/mg
same,radioactivity in Pituitary,[1]; 2 hr,100 cc/min/mg
same,radioactivity in Uterine tissue,[1]; 2 hr,50 cc/min/mg
calcium glycine amino acid chelate [chelated calcium],stability constant,[2],10^10
same,"radioactivity in hypothalamus, mean corrected counts per minute per milligram of tissue",[3]; intravenous 0.06 mg Ca,94.5±22.9 cc/min/mg
same,calcium uptake in pituitary vs calcium chloride group,[3]; intravenous,showed an increase in calcium uptake
same,calcium uptake in skeletal muscles vs calcium chloride group,[3]; intravenous,showed an increase in calcium uptake
same,calcium uptake in uterus vs calcium chloride group,[3]; intravenous,showed an increase in calcium uptake
same,"increase in hypothalamus radioactive calcium, chelated vs inorganic calcium",[3]; intravenous,39.6%
zinc-arginine chelate [GROUP I],radioactive zinc in Epididymis,[4],1.03 cc/min/mg
same,radioactive zinc in Seminal Vesicle,[4],2.53 cc/min/mg
same,radioactive zinc in Testes,[4],1.26 cc/min/mg
